The target in the assay is γ-secretase complex (UniProt P49768).

For the substance HPI-TSA inhibitor 16 (peptide), the IC50 of inhibition of γ-secretase (series 10–16, Table S2) amounted to 0.5 nM.

The record behind these values is article PMC7359870 (Journal of the American Chemical Society, 2020).
